System: low Her2-expressing breast cancer cell line (MCF7)
Assay: Macrophage engulfment of MCF7 cells
Type: cell-based, human
Conditions: HER2LOW cell line MCF7

trastuzumab: anti-Her2 antibody [reference compound]
phagocytosis: did not induce phagocytosis
